Assay results as given in ChEMBL document CHEMBL1135960 (Bioorg Med Chem Lett, 2002).

By UniProt entry, the sequences of proteins in these tests, tags left out. Where a name states a change or a piece, a line headed by the entry shows the natural chain unless it says otherwise.
UniProt P46098: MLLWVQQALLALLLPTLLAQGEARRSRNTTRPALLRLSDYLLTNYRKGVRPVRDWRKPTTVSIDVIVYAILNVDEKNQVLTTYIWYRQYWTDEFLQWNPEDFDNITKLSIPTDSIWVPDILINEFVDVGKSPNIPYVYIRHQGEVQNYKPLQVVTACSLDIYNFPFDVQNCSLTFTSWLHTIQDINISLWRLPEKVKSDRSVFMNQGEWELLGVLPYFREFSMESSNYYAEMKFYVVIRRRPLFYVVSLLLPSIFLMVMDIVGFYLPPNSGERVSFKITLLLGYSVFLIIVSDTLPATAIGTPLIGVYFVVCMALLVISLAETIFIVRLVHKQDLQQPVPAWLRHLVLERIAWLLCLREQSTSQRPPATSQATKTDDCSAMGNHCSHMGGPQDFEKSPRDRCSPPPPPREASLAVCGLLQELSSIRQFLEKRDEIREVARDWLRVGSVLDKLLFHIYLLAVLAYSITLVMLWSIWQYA
UniProt A5X5Y0: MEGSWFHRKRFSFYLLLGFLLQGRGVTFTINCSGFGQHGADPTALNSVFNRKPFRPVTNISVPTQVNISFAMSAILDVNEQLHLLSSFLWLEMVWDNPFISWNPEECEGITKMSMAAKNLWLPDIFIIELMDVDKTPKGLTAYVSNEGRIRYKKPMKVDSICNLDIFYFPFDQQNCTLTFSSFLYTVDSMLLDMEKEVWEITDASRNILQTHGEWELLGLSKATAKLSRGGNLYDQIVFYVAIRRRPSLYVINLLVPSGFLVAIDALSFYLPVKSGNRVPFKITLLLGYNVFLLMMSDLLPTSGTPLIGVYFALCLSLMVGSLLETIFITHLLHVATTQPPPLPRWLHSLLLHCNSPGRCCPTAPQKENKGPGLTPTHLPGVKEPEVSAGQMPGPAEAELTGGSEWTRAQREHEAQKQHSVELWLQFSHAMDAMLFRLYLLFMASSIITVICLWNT
UniProt O95264: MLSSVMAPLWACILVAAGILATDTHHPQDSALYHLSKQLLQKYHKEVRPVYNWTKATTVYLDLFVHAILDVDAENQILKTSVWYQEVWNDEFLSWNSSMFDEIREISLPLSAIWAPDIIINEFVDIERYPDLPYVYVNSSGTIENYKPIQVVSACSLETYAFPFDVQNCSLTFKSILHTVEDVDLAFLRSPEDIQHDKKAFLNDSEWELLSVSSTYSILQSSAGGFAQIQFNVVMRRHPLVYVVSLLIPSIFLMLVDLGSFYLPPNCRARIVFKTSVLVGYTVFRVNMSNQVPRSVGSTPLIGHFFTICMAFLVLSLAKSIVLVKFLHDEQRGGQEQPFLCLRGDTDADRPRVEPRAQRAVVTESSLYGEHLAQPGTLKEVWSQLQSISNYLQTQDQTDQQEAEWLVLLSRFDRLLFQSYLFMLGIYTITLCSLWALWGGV
UniProt Q70Z44: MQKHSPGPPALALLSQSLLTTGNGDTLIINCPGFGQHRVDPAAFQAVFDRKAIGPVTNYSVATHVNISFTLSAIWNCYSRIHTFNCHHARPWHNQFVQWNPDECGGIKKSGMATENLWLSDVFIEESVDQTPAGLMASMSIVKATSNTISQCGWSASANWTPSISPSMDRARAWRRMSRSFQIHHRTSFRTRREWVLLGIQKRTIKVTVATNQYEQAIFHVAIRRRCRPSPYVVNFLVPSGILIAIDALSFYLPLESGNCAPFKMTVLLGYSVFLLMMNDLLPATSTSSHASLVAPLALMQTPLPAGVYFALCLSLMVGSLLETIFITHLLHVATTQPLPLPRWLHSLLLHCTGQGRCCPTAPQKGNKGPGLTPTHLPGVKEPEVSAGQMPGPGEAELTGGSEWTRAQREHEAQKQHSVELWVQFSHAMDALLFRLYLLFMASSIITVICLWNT
UniProt Q8WXA8: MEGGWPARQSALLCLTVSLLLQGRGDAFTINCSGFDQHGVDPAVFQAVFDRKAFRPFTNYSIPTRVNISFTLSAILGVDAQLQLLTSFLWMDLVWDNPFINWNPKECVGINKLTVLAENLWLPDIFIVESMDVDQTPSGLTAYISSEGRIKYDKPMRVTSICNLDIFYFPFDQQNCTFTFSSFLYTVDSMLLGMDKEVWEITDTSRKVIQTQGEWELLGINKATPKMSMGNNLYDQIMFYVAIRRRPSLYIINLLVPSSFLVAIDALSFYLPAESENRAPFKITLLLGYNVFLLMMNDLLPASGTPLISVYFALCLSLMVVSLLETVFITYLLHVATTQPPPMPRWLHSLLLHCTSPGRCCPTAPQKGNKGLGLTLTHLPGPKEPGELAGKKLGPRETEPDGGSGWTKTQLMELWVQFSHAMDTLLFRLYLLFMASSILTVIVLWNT

Target: Serotonin 3 (5-HT3) receptor (Homo sapiens) (UniProt P46098+A5X5Y0+O95264+Q70Z44+Q8WXA8)
Experiment: Intrinsic activity towards CNS 5-hydroxytryptamine 3 receptor was determined; PA: Partial agonist
Type: functional
Settings: filed as partial agonist

Intrinsic activity: Partial agonist
SMILES: CN1CCN(c2nc3ccccc3c3c2CCCC3)CC1
